This list holds what a sample rich in hits left over.
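Also: Wild-type cells incubated without shaking, value is the mean of two biological replicates.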

This assay deals with Escherichia coli K-12 BW25113. The assay is described as follows: relative growth (OD600 normalised to plate interquartile mean) (fraction); higher = less growth inhibition, active = 0.2 or less. To be noted: 50 µM; LB; incubation time: overnight (16-24 h).
As to `COc1cc(Br)c(C[N+]2(CCOCC[C@H]3CC[C@@H]4C[C@H]3C4(C)C)CCOCC2)cc1OC`, the relative growth is inactive: 0.946.

As to `COc1c2ccccc2nc2occc12`, the relative growth is inactive: 0.697.

In the case of `c1ccc(-c2ccccn2)cc1`, the relative growth is inactive: 0.993.
